Series [1] is filed under the species Homo sapiens. As to the kind of experiment: Protein binding in 10% human plasma. As to conditions: 10% plasma, read-out: PPB (converted).
The species named for series [2] is Homo sapiens. Description: Protein binding in 100% human plasma. As to conditions: 100% plasma, read-out: PPB (converted).

`CN(C)Cc1nc2c(sc3ccc(-c4ccc(O)cc4)cc32)c(=O)[nH]1`: the fraction unbound in the series listed under Homo sapiens [1] is 0.32; in the series filed under Homo sapiens [2] it was 0.08.

For the origin of these results see ChEMBL document CHEMBL1154637 (J Med Chem, 2009).
